Experimental data taken from BindingDB's records for doi:10.3109/14756366.2010.491794 (Nanchang University School of Pharmaceutical Science, 2011).

Sequences of proteins named here, by UniProt entry; tags and fusion partners are left off.
UniProt Q99NU1, whole entry: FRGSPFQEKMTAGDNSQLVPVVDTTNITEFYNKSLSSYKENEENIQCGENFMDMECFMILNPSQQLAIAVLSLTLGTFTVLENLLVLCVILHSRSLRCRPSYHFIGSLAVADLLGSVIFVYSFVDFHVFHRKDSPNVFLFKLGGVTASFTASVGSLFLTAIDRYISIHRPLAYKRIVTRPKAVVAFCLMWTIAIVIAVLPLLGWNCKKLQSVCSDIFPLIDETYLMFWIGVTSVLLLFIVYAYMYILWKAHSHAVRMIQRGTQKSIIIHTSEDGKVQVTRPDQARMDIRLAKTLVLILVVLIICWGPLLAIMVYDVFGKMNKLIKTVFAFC

Molecular target: Cannabinoid receptor 1 (Cricetulus griseus, UniProt Q99NU1)
Assay: CB1 Receptor Binding Assay (In Vitro)
Experimental: The target compounds were evaluated using a binding assay towards the CB1 receptor expressed on the membranes of Chinese hamster ovarian (CHO) cells. Rimonabant was used as the positive control and DMSO was used as the blank control. The potent synthetic cannabinoid agonist, [3H]-CP55940, was used as a radioligand (Figure 1). The CHO cells were incubated in 96-well microtiter plates. Various concentrations of the synthesised cannabinoid ligands were added and incubated for 10 min at 37°C. Then the [3H]-CP55940 was added at a final concentration of 1.7 nM and incubated for another 30 min at 37°C. The cells were lysed and scintillation fluid was added. The radioactivity was quantitated by liquid scintillation spectrometry [Menozzi et al., Eur. J. Med. Chem., 43:2627-2638]. There were three parallels in the tests.

Q: How did the IC50 turn out when Cc1c(C(=O)NN2CCCCC2)nn(-c2ccc(Cl)cc2Cl)c1-c1ccc(Cl)cc1 [SR141716] was run?
A: The IC50 was 4.72 nM.
